# Values quoted from earlier work, collected in patent publication US9272037B2, “Method to treat premature ejaculation in humans” (priority 2005, dated 2016).
# Amino acid sequences for entries named in this document (tags omitted).
# UniProt P35372, whole entry: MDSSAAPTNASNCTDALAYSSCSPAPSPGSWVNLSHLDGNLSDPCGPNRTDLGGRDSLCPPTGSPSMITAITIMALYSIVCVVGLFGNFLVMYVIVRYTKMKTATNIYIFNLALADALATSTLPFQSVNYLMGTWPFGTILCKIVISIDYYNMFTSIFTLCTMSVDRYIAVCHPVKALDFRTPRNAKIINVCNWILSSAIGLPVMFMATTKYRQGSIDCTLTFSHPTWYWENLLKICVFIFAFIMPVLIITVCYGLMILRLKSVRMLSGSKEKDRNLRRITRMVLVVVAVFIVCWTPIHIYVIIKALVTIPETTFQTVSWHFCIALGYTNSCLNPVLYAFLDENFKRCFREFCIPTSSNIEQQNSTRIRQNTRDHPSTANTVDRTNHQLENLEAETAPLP
# Molecular target: μ-opiate receptors (Homo sapiens, UniProt P35372)
# Details: versus tramadol
compound,measurement,value
"CN(C)C[C@H]1CCCC[C@]1(O)c1cccc(O)c1 [O-desmethyltramadol (M1), O-desmethyltramadol]",affinity for opiate receptors relative to the parent drug tramadol,higher affinity
